Test results as given in patent publication US20230084354A1, “NUTRACEUTICAL EXTRACTS OF HIPPOPHAE RHAMNOIDES AND TERMINALIA CHEBULA AND USES THEREOF” (Biomics, LLC, priority 2020, published 2023).

Tested on: Human peripheral blood mononuclear cell (PBMC) cultures
Assay: CD69 and CD25 expression in human PBMC cultures, direct effects
Assay type: cell-based
Conditions: direct effect, 24 hours, vs untreated control; extract at the highest dose
Procedure: Next, the immune-modulating effects of the extract were tested. Human peripheral blood mononuclear cell (PBMC) cultures were used for this testing. A set of cultures were left untreated as negative control cultures for immune activation. Triplicate sets of cultures were treated with serial dilutions of the test product. The inflammatory bacterial lipopolysaccharide LPS from E. coli was used as a positive control for activation. The cultures were incubated for 24 hours, after which the cells and the culture supernatants were harvested and used to monitor the reactions in each culture. The cells were used for immunostaining and flow cytometry, specifically to evaluate the induction of two activation markers, CD69 and CD25, on NK cells, NKT cells, T lymphocytes, and monocytes/macrophages.

IL-2: control for immune activation in PBMC cultures
CD69 expression on NK cells: increase
